Values after ≈ are worked out from the molar mass of the structure shown. Blank lines part the entries; values can stand above or below the molecule they belong to.
Legend:
in vitro [1] = conditions: Wistar, rat, microsomes
in vitro [2] = conditions: human, Caco-2
in vitro [3] = conditions: CD-1, mouse, liver microsomes
[4] = human, microsomes, 1 µM
in vitro [5] = conditions: human, microsomes
in vitro [6] = conditions: NMRI, mouse, microsomes
Vasopressin V1a receptor [7] = target: T1, Vasopressin V1a receptor (Homo sapiens, UniProt P37288)
animal or person [8] = conditions: Mus musculus, NMRI, po, read-out: INH
animal or person [9] = conditions: Mus musculus, NMRI, po, read-out: INH; remark: listed apart in the source
Vasopressin V1a receptor [10] = target: T1, Vasopressin V1a receptor; remark: listed apart in the source
in vivo [11] = conditions: Wistar, rat, brain, po, 3 mg/kg
physchem [12] = conditions: buffer, pH 2
in vivo [13] = conditions: Wistar, rat, plasma, po, 3 mg/kg
in vivo [14] = conditions: Wistar, rat, iv, 3 mg/kg
in vivo [15] = conditions: Wistar, rat, plasma, po, 3 mg/kg; remark: listed apart in the source
in vitro [16] = conditions: guinea pig, hepatocytes
in vivo [17] = conditions: guinea pig, po, 10 mg/kg
in vivo [18] = conditions: Wistar, rat, po, 3 mg/kg
in vivo [19] = conditions: Wistar, rat, plasma, iv, 3 mg/kg
in vivo [20] = conditions: Wistar, rat, brain, po, 3 mg/kg; remark: listed apart in the source
in vivo [21] = conditions: Wistar, rat, plasma, po, 3 mg/kg; remark: listed apart in the source
in vitro [22] = conditions: NMRI, mouse, hepatocytes
in vivo [23] = conditions: male, dog, plasma, po, 3 mg/kg
physchem [24] = conditions: buffer, pH 7.4
in vivo [25] = conditions: Wistar, rat, po, 1.5 mg/kg
physchem [26] = conditions: buffer, pH 7.4; remark: listed apart in the source
in vitro [27] = conditions: beagle, dog, hepatocytes
in vivo [28] = conditions: Wistar, rat, brain, po, 3 mg/kg; remark: listed apart in the source
in vivo [29] = conditions: Wistar, rat, plasma, iv, 3 mg/kg; remark: listed apart in the source
in vitro [30] = conditions: guinea pig, plasma
physchem [31] = conditions: buffer, pH 6.5
in vivo [32] = conditions: Wistar, rat, po, 3 mg/kg; remark: listed apart in the source
in vivo [33] = conditions: Wistar, rat, plasma, iv, 3 mg/kg; remark: listed apart in the source
in vivo [34] = conditions: Wistar, rat, plasma, po, 3 mg/kg; remark: listed apart in the source
in vitro [35] = conditions: marmoset, hepatocytes
in vivo [36] = conditions: dog, po, 10 mg/kg
in vitro [37] = conditions: Wistar, rat, hepatocytes
physchem [38] = assay: physchem
in vitro [39] = conditions: human, plasma
in vivo [40] = conditions: Wistar, rat, po, 300 mg/kg
in vivo [41] = conditions: Wistar, rat, po, 1.5 mg/kg; remark: listed apart in the source
physchem [42] = conditions: octanol/water
in vitro [43] = conditions: dog, plasma
in vivo [44] = conditions: female, dog, plasma, po, 3 mg/kg
in vitro [45] = conditions: human, hepatocytes
in vitro [46] = conditions: NMRI, mouse, plasma
in vitro [47] = conditions: Wistar, rat, plasma

Protein sequences, listed by entry. Tags and fused reporters are not part of them.
UniProt P37288, whole entry: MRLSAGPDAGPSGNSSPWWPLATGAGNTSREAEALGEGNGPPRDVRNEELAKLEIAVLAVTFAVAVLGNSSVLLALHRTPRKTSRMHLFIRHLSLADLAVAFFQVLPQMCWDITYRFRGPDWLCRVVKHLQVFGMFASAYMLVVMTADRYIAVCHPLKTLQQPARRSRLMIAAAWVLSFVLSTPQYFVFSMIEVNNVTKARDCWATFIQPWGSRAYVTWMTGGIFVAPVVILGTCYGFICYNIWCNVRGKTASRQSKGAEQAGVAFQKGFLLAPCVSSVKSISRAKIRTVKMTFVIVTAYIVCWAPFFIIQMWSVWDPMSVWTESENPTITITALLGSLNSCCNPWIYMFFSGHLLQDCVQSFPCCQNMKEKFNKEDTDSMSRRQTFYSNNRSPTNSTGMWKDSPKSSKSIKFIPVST

- microsomal CLint at 1 µM (in vitro [1]): 37 µL/min/mg
- Papp A→B at 10 µM (in vitro [2]): 35 ×10⁻⁶ cm/s
- microsomal CLint at 1 µM (in vitro [3]): 25 µL/min/mg
- CLH [4]: 4.3 mL/day/kg
Structure (SMILES): FC[C@H]1Cc2cc(Cl)ccc2-n2c(nnc2[C@H]2CC[C@H](Oc3ccccn3)CC2)C1

- microsomal CLint at 1 µM (in vitro [1]): 123 µL/min/mg
- Papp A→B at 10 µM (in vitro [2]): 17 ×10⁻⁶ cm/s
- microsomal CLint at 1 µM (in vitro [5]): 128 µL/min/mg
- microsomal CLint at 1 µM (in vitro [6]): 140 µL/min/mg
Structure (SMILES): CC(C)N[C@H]1Cc2cc(Cl)ccc2-n2c(nnc2[C@H]2CC[C@H](Oc3ccccn3)CC2)C1

- microsomal CLint at 1 µM (in vitro [1]): 43 µL/min/mg
- Papp A→B at 10 µM (in vitro [2]): 35 ×10⁻⁶ cm/s
- microsomal CLint at 1 µM (in vitro [6]): 6 µL/min/mg
- CLH [4]: 2.9 mL/day/kg
Structure (SMILES): OC[C@@H]1Cc2cc(Cl)ccc2-n2c(nnc2[C@H]2CC[C@H](Oc3ccccn3)CC2)C1

- microsomal CLint at 1 µM (in vitro [1]): 43 µL/min/mg
- Papp A→B at 10 µM (in vitro [2]): 28 ×10⁻⁶ cm/s
- microsomal CLint at 1 µM (in vitro [6]): 13 µL/min/mg
- CLH [4]: 1.4 mL/day/kg
Structure (SMILES): OC[C@H]1Cc2cc(Cl)ccc2-n2c(nnc2[C@H]2CC[C@H](Oc3ccccn3)CC2)C1

- IC50 (Vasopressin V1a receptor [7]): 2.4 nM
- microsomal CLint at 1 µM (in vitro [1]): 43 µL/min/mg
- Papp A→B at 10 µM (in vitro [2]): 50 ×10⁻⁶ cm/s
- microsomal CLint at 1 µM (in vitro [3]): 44 µL/min/mg
- CLH [4]: 7.2 mL/day/kg
- Ki (Vasopressin V1a receptor [10]): 0.3 nM
Structure (SMILES): Clc1ccc2c(c1)CC1(Cc3nnc([C@H]4CC[C@@H](Oc5ccccn5)CC4)n3-2)OCCO1
- inhibition in vivo at 3 mg/kg (animal or person [8]): 34%
- inhibition in vivo at 10 mg/kg (animal or person [9]): 55%

- microsomal CLint at 1 µM (in vitro [1]): 14 µL/min/mg
- Papp A→B at 10 µM (in vitro [2]): 22 ×10⁻⁶ cm/s
- microsomal CLint at 1 µM (in vitro [6]): 7 µL/min/mg
- CLH [4]: 1.4 mL/day/kg
Structure (SMILES): OCC1Cc2cc(Cl)ccc2-n2c(nnc2[C@H]2CC[C@H](Oc3ccccn3)CC2)C1 (some centres not stated)

- microsomal CLint at 1 µM (in vitro [1]): 78 µL/min/mg
- Papp A→B at 10 µM (in vitro [2]): 34 ×10⁻⁶ cm/s
- microsomal CLint at 1 µM (in vitro [3]): 38 µL/min/mg
- CLH [4]: 2.9 mL/day/kg
Structure (SMILES): FC[C@@H]1Cc2cc(Cl)ccc2-n2c(nnc2[C@H]2CC[C@H](Oc3ccccn3)CC2)C1

- microsomal CLint at 1 µM (in vitro [1]): 29 µL/min/mg
- Papp A→B at 10 µM (in vitro [2]): 20 ×10⁻⁶ cm/s
- microsomal CLint at 1 µM (in vitro [5]): 28 µL/min/mg
- microsomal CLint at 1 µM (in vitro [6]): 24 µL/min/mg
Structure (SMILES): CC(C)N[C@@H]1Cc2cc(Cl)ccc2-n2c(nnc2[C@H]2CC[C@H](Oc3ccccn3)CC2)C1
- inhibition in vivo at 3 mg/kg (animal or person [8]): 47%

- microsomal CLint at 1 µM (in vitro [1]): 60 µL/min/mg
- microsomal CLint at 1 µM (in vitro [3]): 74 µL/min/mg
- CLH [4]: 57.6 mL/day/kg
Structure (SMILES): Clc1ccc2c(c1)CC1(CCOCC1)Cc1nnc([C@H]3CC[C@H](Oc4ccccn4)CC3)n1-2

- half-life (in vivo [11]): 81.6 min
- logD (physchem [12]): 1.5
- bioavailability (in vivo [13]): 25%
- AUC(0-t) (in vivo [14]): 3.05 µM·h
- half-life (in vivo [15]): 58.2 min
- hepatocyte CLint (in vitro [16]): 12 µL/min/1e6 cells
- Cmax (in vivo [17]): 107 ng/mL
- AUC(0-t) (in vivo [18]): 0.148 µM·h
- Vd (in vivo [19]): 2 L/kg
- Tmax (in vivo [20]): 30 min
- Tmax (in vivo [21]): 30 min
- hepatocyte CLint (in vitro [22]): 17 µL/min/1e6 cells
- bioavailability (in vivo [23]): 13%
- logD (physchem [24]): 3.86
- AUC (in vivo [25]): 9.57 ng·h/mL
- solubility thermodynamic (physchem [26]): 35 µM (≈ 15.9 µg/mL)
- hepatocyte CLint (in vitro [27]): 6 µL/min/1e6 cells
- Cmax (in vivo [28]): 135 nM
- half-life (in vivo [29]): 38.4 min
- fraction unbound (in vitro [30]): 0.107
- logD (physchem [31]): 3.86
- AUC(0-t) (in vivo [32]): 0.757 µM·h
- clearance (in vivo [33]): 52800 mL/day/kg
- Cmax (in vivo [34]): 638 nM
- hepatocyte CLint (in vitro [35]): 26 µL/min/1e6 cells
- Cmax (in vivo [36]): 132 ng/mL
- hepatocyte CLint (in vitro [37]): 29 µL/min/1e6 cells
- Papp A→B at 10 µM (in vitro [2]): 63 ×10⁻⁶ cm/s
- microsomal CLint at 1 µM (in vitro [3]): 51 µL/min/mg
- pKa (physchem [38]): 3.6
- fraction unbound (in vitro [39]): 0.053
- AUC (in vivo [40]): 11100 ng·h/mL
- Cmax (in vivo [41]): 5.9 ng/mL
- logP (physchem [42]): 3.86
- fraction unbound (in vitro [43]): 0.041
- bioavailability (in vivo [44]): 15%
- hepatocyte CLint (in vitro [45]): 3 µL/min/1e6 cells
- CLH [4]: 18.7 mL/day/kg
- fraction unbound (in vitro [46]): 0.033
- fraction unbound (in vitro [47]): 0.022
Structure (SMILES): Clc1ccc2c(c1)CC1(Cc3nnc([C@H]4CC[C@H](Oc5ccccn5)CC4)n3-2)OCCO1
- inhibition in vivo at 10 mg/kg (animal or person [9]): ≥ 70%

- microsomal CLint at 1 µM (in vitro [1]): 35 µL/min/mg
- Papp A→B at 10 µM (in vitro [2]): 13.3 ×10⁻⁶ cm/s
- microsomal CLint at 1 µM (in vitro [5]): 40 µL/min/mg
- microsomal CLint at 1 µM (in vitro [6]): 41 µL/min/mg
Structure (SMILES): CC(C)NC1Cc2cc(Cl)ccc2-n2c(nnc2[C@H]2CC[C@H](Oc3ccccn3)CC2)C1 (mixture of isomers)
- inhibition in vivo at 3 mg/kg (animal or person [8]): 80%
- inhibition in vivo at 10 mg/kg (animal or person [9]): 118%
